## Binding of CDR-mutated scFvs to a peptide of the spike HR2 region

Source: Engelhart et al. 2022 (doi:10.1038/s41597-022-01779-4), MIT Lincoln Laboratory and A-Alpha Bio; data file from the FLAb repository.

All variants were tested on one target, the spike HR2 peptide PDVDLGDISGINAS (SARS-CoV-2).

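The parent was found by panning a naive human phage display library on the peptide. Variants in AAYL50 differ from the parent at up to three CDR positions; double and triple changes were sampled at random. AlphaSeq pools MATa yeast showing the antibodies with MATalpha yeast showing the peptide. After mating in shaken culture at 30 °C for 16 h, diploids were selected and their barcode pairs sequenced. The ratio of observed to expected reads was calibrated, replicate by replicate, on BCL2-family standards whose Kd was known from biolayer interferometry. Mating was done three times.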

Each scFv is VH, the linker GGGGSGGGGSGGGGS, VL, as in the parent Ab-14, and differs from it in the CDRs of the light chain only.
VH: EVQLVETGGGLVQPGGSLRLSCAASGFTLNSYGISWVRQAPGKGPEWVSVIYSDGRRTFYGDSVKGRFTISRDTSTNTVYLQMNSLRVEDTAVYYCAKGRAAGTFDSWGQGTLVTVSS
VL: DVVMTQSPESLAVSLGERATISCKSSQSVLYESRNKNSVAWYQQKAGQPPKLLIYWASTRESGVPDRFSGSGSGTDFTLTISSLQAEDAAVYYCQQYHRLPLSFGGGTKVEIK

Substitutions are numbered in sequence along the VL above, starting at 1 (not Kabat).
Affinities are written as log10 Kd with Kd in nM; a lower number is a better binder.
The mean shown is taken over the replicates in which the pair was detected.
An entry "nd" has no value in the source: the pair was not observed among the diploids in any replicate. This suggests poor binding but is not conclusive.
Order: sorted from the lowest average up, undetected variants last.
In this assay the parent's reference entry averaged 0.65; its copy inside this library read 1.68.
As a blank, each scFv also met three strains without target: over library AAYL50, 18% of these pairings were detected, typically at 4.19 and seldom below 2.99.

changes | mean log10 Kd (nM) | seen in
S25V/V29L/Y31M | -0.12 | 3/3
S25M/L30A/Y31E | -0.11 | 3/3
S26M/S33C/R34E | 0.04 | 3/3
Q27S/R34F/Y97K | 0.44 | 3/3
L30V/Y31H/S62H | 0.73 | 3/3
S33Q/K36F | 0.81 | 3/3
K24H/L30Q/S62L | 0.87 | 3/3
R34T/N37P/T59K | 0.95 | 3/3
Q27D/V29I/S58T | 0.99 | 3/3
V29Y/S62V/H98C | 1.17 | 3/3
L100F/S103W | 1.36 | 3/3
S62L/H98M | 1.55 | 3/3
L30S/N37K/H98W | 1.64 | 3/3
N35K/K36Y/L100Y | 1.73 | 3/3
S28Y/Q95E | 1.74 | 3/3
S33L/T59D/H98I | 1.84 | 3/3
Y31G/N37S/Y97H | 1.86 | 3/3
S28W/W56Y/T59A | 1.98 | 3/3
S25Q/S26I/R99H | 2.14 | 3/3
S28G/K36E/R99V | 2.38 | 3/3
S58I/Y97S | 2.94 | 1/3
Q27D/R34L/N37L | 3.08 | 3/3
N37T/S58E/Q96V | 3.31 | 3/3
N37Q/Y97F/P101W | 3.34 | 1/3
K24E/E32P/R99N | 3.41 | 3/3
S28E/R34D/P101C | 3.46 | 1/3
K36Y/V39K/Q95W | 3.55 | 1/3
Q27L/S58L/R60Y | 3.69 | 1/3
S33P/S38V/E61M | 3.69 | 1/3
W56Y/R60P/Q95A | 3.72 | 3/3
Q95V/L100N/S103E | 3.90 | 1/3
E32Y/L100H | 3.95 | 1/3
T59Q/Q95L | 4.20 | 1/3
Y31P/S38K/L100A | 4.24 | 1/3
T59V/R60T/E61D | 4.52 | 1/3
S26N/S38I | 4.81 | 2/3
S26V/N35A/A57P | 5.20 | 1/3
S33R/Q96K | 5.28 | 2/3
E32T/S62D/Q95N | 5.33 | 1/3
V39R/S62Q | nd | 0/3
N35H/S38K/L100S | nd | 0/3
S25N/R60A | nd | 0/3
V29W/Y31F/A40H | nd | 0/3
R34M/N37G/A40F | nd | 0/3
K24Q/S33H/L102V | nd | 0/3
N37V/A57C/H98N | nd | 0/3
S28N/R60H/S103Y | nd | 0/3
S26T/V39C/R60E | nd | 0/3
L30Y/S33R/N37K | nd | 0/3
S26L/A57V/S62Q | nd | 0/3
N35V/P101Y | nd | 0/3
S25W/V39S/A57P | nd | 0/3
V39S/A57L/R99Y | nd | 0/3
S25Q/S28H/K36Y | nd | 0/3
S28G/N35A/K36L | nd | 0/3

A selection of 7 entries from above:

| changes | mean log10 Kd (nM) | seen in |
|---|---|---|
| Q27L/S58L/R60Y | 3.69 | 1/3 |
| Q27D/V29I/S58T | 0.99 | 3/3 |
| S28Y/Q95E | 1.74 | 3/3 |
| S25Q/S28H/K36Y | nd | 0/3 |
| V39R/S62Q | nd | 0/3 |
| S28G/N35A/K36L | nd | 0/3 |
| S58I/Y97S | 2.94 | 1/3 |